Test results as given in ChEMBL document CHEMBL3734721 (J Med Chem, 2015).

Chains of the proteins cited; added tags and fusions are not shown.
UniProt P28222, whole entry: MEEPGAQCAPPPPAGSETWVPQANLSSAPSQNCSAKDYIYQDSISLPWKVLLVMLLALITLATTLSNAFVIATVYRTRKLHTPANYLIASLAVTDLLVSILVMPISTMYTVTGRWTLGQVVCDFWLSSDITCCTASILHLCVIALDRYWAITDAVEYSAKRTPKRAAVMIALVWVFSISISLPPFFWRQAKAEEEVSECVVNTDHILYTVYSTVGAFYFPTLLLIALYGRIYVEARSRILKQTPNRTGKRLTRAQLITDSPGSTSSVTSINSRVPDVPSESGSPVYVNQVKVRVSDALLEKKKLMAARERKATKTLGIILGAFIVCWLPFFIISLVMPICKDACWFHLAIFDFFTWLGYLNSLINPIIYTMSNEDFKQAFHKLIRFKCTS

How the values were obtained:
[1] = target: T1, 5-hydroxytryptamine receptor 1B (Homo sapiens, UniProt P28222); assay: Antagonist activity at human 5-HT1B receptor expressed in CHO-K1 cells assessed as seretonin-induced cAMP level by HTRF assay; assay type: functional, cell-based
[2] = target: T1, 5-hydroxytryptamine receptor 1B; assay: Agonist activity at human 5-HT1B receptor expressed in CHO-K1 cells assessed as cAMP level by HTRF assay; assay type: functional, cell-based

IC50 [1]: > 5.01 µM
EC50 [2]: > 5.01 µM
Structure (SMILES): CC(C)NCC(O)COc1cccc2ccccc12 (configuration not stated) [PROPRANOLOL]
